# From PubChem BioAssay AID463189 (University of Pittsburgh Molecular Library Screening Center, 2010)
# “And” between values parts separate entries of the source, which are not always exact repeats. Equal values may be shown once. The list shows a part of the results, in another mix than the full data. The source made the active and inactive calls.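 Rule for the calls: active = inhibition at or above 50% relative to wild type and mutant plate controls; inactive = inhibition below 50%.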
# Experiment: inhibitors of Chlamydomonas gravitaxis, primary screen, whole organism, Chlamydomonas reinhardtii, WT vs cilia-less mutant, absorbance, 96-well (AID 463189);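 note: 0% = wild type cc124 cells in DMSO and 100% = ciliumless bld1 mutant cells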
# Conditions: OD600 absorbance, 2 days, at 10 µM, stronger effect = higher value
row,SMILES,inhibition
1,Cc1cccc(OCC(=O)OC2CN3CCC2CC3)c1 (stereo not drawn),inactive: -5.52%
2,CN(C(=O)Cc1ccc(Cl)c(Cl)c1)[C@@H]1CC[C@]2(CCCO2)C[C@H]1N1CCCC1,inactive: -1.85%
3,CN(C(=O)Cc1ccccc1)[C@@H]1CC[C@]2(CCCO2)C[C@H]1N1CCCC1,inactive: 8.55%
4,Cc1ccc(OCC(=O)OC2CN3CCC2CC3)cc1 (stereo not drawn),inactive: -6.96%
5,CN(CCCl)Cc1cc(Cl)c(NC2=NCCN2)c(Cl)c1,inactive: 4.63%
6,CN(C(=O)Cc1ccc(Cl)c(Cl)c1)[C@@H]1CCCC[C@H]1N1CCCC1,inactive: 1.54%
7,CN(C(=O)Cc1ccc(Cl)c(Cl)c1)[C@H]1CCCC[C@@H]1N1CCCC1,inactive: -2.18% and inactive: -6.49%
8,CN(C(=O)Cc1ccc(Cl)c(Cl)c1)[C@@H]1CCCC[C@@H]1N1CCCC1,inactive: 6.3%
